Reference: PubChem BioAssay AID1066 (SRMLSC, 2008)
The entries are a selection whose mix differs from that of the whole data set. Some of these compounds have results that are not shown, active ones among them. Active and inactive are the calls of the source.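 The calls were made as follows: active = inhibition above a set limit, the median over all tested compounds plus 3 SD (cut at about 9.5% in these data); inconclusive = no clear call, values can overlap the other calls; inactive = the rest.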

tested on: HMG-CoA reductase (Enterococcus faecalis, mvaE); assay: class II HMG-CoA reductase enzyme inhibition – biochemical, Enterococcus faecalis, primary screen (AID 1066);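 also: enzyme runs in reverse so mevalonate oxidation gives rising NADPH absorbance; 0% = complete reaction with DMSO and 100% = background rate lacking mevalonate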; conditions: purified E. faecalis HMGR, NADPH absorbance 340 nm kinetic; at 10 µM; hits give high values

SMILES	inhibition
COc1cccc(C(=O)NCC2(N3CCCCC3)CCCCC2)c1	inactive: -1.15%
CN(C)c1cccc(C(=O)NCC2(N(C)C)CCCCC2)c1	inactive: -3.55%
O=C(OC1CN2CCC1CC2)C(CO)(c1ccccc1)c1ccccc1 (centres undefined)	inactive: -1.8%
CC(C)N1C(=O)CC2(CCN(CCOC(=O)C(O)(c3ccccc3)c3ccccc3)CC2)C1=O	inactive: -3.66%
O=C(NCC1(N2CCCCC2)CCCCC1)c1cc([N+](=O)[O-])ccc1Cl	inactive: -0.54%
CCN1CCCC(OC(=O)C2(O)c3ccccc3C=Cc3ccccc32)C1 (centres undefined)	inactive: -5.83%
C=CCN1CCN(CCOC(=O)C(O)(c2ccccc2)c2ccccc2)CC1	inactive: 0.33%
CN(C)C1CCCC1OC(=O)C(O)(c1ccccc1)c1ccccc1 (centres undefined)	inactive: -2.6%
Cc1ccccc1C(=O)NCC1(N2CCCCC2)CCCCC1	inactive: -1.4%
